Values of other authors as cited in patent publication US12605424B2 (priority 2019, dated 2026).

Chains of the proteins cited; added tags and fusions are not shown. Lines headed by an entry give the natural chain unless they say otherwise; changes in a name come on top.
UniProt P37088: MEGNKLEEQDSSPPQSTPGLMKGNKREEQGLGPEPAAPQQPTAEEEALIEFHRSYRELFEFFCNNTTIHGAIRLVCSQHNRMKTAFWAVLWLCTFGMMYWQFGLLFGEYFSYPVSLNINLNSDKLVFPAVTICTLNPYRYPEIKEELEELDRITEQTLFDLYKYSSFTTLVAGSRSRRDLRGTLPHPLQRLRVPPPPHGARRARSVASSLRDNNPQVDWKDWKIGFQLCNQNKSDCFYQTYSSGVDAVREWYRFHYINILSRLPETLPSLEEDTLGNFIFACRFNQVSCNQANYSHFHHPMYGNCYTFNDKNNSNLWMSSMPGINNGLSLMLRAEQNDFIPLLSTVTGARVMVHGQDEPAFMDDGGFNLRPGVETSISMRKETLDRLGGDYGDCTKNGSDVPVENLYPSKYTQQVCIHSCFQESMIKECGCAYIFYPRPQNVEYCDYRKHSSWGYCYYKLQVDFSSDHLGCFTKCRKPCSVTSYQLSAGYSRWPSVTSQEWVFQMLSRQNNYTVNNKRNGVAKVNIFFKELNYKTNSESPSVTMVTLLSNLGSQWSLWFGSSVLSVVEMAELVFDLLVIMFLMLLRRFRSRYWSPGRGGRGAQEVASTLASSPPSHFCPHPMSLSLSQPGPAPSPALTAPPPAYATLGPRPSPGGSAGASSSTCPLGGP
UniProt P51168: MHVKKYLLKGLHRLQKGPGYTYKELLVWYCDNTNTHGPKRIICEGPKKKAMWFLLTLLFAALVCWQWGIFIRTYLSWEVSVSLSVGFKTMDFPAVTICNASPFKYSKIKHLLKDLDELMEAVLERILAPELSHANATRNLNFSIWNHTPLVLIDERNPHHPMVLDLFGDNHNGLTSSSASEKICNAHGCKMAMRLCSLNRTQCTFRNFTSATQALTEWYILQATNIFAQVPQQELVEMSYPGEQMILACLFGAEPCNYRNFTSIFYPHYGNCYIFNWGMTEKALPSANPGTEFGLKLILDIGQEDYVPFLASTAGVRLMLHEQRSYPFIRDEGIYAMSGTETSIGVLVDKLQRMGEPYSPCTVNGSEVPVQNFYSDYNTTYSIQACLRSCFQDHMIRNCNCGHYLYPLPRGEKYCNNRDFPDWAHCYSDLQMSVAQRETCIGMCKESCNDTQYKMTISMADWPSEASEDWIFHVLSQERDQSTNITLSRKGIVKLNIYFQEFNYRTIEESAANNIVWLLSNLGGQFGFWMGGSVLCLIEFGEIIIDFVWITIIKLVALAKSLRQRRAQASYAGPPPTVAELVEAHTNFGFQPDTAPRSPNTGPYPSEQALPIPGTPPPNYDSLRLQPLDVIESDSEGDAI
UniProt P51170: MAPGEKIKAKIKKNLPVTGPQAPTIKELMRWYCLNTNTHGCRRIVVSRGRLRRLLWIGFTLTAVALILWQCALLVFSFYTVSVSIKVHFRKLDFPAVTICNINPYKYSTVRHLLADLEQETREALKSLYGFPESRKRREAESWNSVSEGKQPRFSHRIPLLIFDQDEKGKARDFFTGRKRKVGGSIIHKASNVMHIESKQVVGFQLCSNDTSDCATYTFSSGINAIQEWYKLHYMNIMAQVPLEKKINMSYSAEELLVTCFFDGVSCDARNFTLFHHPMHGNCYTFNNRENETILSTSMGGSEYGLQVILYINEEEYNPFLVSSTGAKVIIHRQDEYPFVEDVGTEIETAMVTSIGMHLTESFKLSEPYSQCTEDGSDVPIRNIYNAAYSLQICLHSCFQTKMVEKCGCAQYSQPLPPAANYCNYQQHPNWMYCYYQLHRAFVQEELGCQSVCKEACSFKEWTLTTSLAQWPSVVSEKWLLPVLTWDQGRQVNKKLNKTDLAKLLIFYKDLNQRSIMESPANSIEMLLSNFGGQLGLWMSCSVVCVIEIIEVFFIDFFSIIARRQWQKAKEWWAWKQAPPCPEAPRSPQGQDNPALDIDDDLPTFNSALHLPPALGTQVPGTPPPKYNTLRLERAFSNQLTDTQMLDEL

Biological target: α, β, γ-hENaC (Homo sapiens, UniProt P37088+P51168+P51170)
Settings: cited from earlier work

N=C(N)NC(=O)c1nc(Cl)c(N)nc1N [amiloride]
inhibition of Na^+ currents of ENaC injected oocytes: 90%
